# Most compounds without a hit are left out; they make up all but 2.2% or so of the library.
# SIRT5 block = SIRT5 desuccinylase inhibitors, primary screen, biochemical, fluorescence imaging, single point, set 5. NAD-dependent protein deacylase sirtuin-5, mitochondrial (Homo sapiens), Q9NXA8. Purified SirT5, succinyl-peptide AMC, trypsin-coupled fluorescence. inhibition, % at 15 µM. 1.1% of 330,000 active. AID 652115, 2013; in the data active means inhibition above about 15%
# PDI turbidity = inhibitors of human PDI, primary screen, biochemical, turbidity, single point, plate reader | PDI insulin aggregation turbidity, A650, 90 min | Protein disulfide-isomerase (Homo sapiens), P07237 | 0.052% of 350,000 active | inhibition, % at 10 µM;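 active means mean inhibition across replicates of 30% or more, whatever share of single replicates reach that level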
# S100A4 inh HTS = inhibitors of S100A4-myosin IIA peptide binding, primary screen, biochemical, fluorescence polarization, TAMRA-MyoIIA peptide; AID 652163, 2013; 0.14% of 360,000 active; inhibition, % at 10.7 µM;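 active means mean inhibition of at least 70% across replicates, with every replicate also reaching that level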
#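 Material: S100A4 monomer (human). Medium: Calcium-containing HEPES buffer, pH 7.2. Probe or stimulus: labelled myosin peptide probe, 5 nM. Compound dosing: one concentration per compound. Timing: polarization read 5 min after assay mix addition, stable 5–60 min. Benchmarks: DMSO as neutral control, TFP as positive control.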
# FGF22 binding = binders of human FGF22 protein, primary screen, FGF22 synaptogenesis inhibitor project, biophysical, thermal shift, single point; Fibroblast growth factor 22 (Homo sapiens), Q9HCT0; recombinant FGF22 thermal shift, SYPRO orange fluorescence; percent of sucrose octasulfate shift, DMSO zero; activity (Tm shift, normalised), % at 9.99 µM; 1.5% of 340,000 active; AID 651658, 2012;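 active means mean Tm shift, scaled 0 neutral to 100 positive control, at about 1.3% or above, every replicate too, limit read from the data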
# UUG fidelity = alters start codon recognition fidelity in yeast; AID 602363; activity score, % at 18.7 µM; 350,000 tested, 0.13% active; S. cerevisiae UUG-firefly luciferase reporter, luminescence/redox ratio;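 active means replicate mean at a twofold rise or more, about +100% in these data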;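 further: firefly luciferase made from a UUG start codon reports start codon fidelity; reporter light over untreated wells divided by growth signal over untreated wells; some hits fall short of that in this replicate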
# ERp5 inh = inhibitors of ERp5-driven insulin aggregation, primary screen, biochemical, turbidity, absorbance 650 nm, single point; Protein disulfide-isomerase A6 (Homo sapiens), Q15084; 90 min; inhibition, % at 9.99 µM; 0.05% of 350,000 active; AID 651711, 2012;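 active means mean replicate inhibition above about 25%, with every replicate also reaching it, limit read from the data, passing the limit was not always enough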
# * hit, by the source's call; / = not tested or not shown.
1: C[C@H]1CN([C@@H](C)CO)C(=O)c2ccccc2-c2ccccc2CO[C@@H]1CN(C)Cc1ccc(C(F)(F)F)cc1
2: O=C(O)C[C@H]1CC[C@H](NC(=O)Nc2ccccc2)[C@H](CO)O1
3: COc1ccc(CN(C)C[C@H]2Oc3ccc(NC(=O)C4CCCCC4)cc3CC(=O)N([C@H](C)CO)C[C@@H]2C)cc1
4: O=C(O)C1Nc2c(O)cc(Cl)c([N+](=O)[O-])c2C2C=CCC12 (stereo not drawn)
5: COc1cccc2c1NC(C(=O)O)C1CC=CC21 (stereo not drawn)
6: O=C(C[C@H]1C=C[C@@H](NC(=O)Cc2cccnc2)[C@@H](CO)O1)Nc1ccc(-c2ccccc2)cc1

assay / entry,1,2,3,4,5,6
SIRT5 block,16*,14,4,/,/,1
PDI turbidity,/,/,/,20,-5,/
S100A4 inh HTS,-18,3,-2,-9,/,3
FGF22 binding,0,-1,0,2.7*,/,0
UUG fidelity,/,2,4,/,/,/
ERp5 inh,7,-2,3,11,/,0

# Whole records, quoted from the list. Values in the order: SIRT5 block	PDI turbidity	S100A4 inh HTS	FGF22 binding	UUG fidelity	ERp5 inh
# Results for C[C@H]1CN([C@@H](C)CO)C(=O)c2ccccc2-c2ccccc2CO[C@@H]1CN(C)Cc1ccc(C(F)(F)F)cc1 → 16*	/	-18	0	/	7
# Results for COc1ccc(CN(C)C[C@H]2Oc3ccc(NC(=O)C4CCCCC4)cc3CC(=O)N([C@H](C)CO)C[C@@H]2C)cc1 → 4	/	-2	0	4	3
# Results for COc1cccc2c1NC(C(=O)O)C1CC=CC21 (stereo not drawn) → /	-5	/	/	/	/

# Next section
7: Cc1ccc(C(=O)OCc2nc3ccsc3c(=O)[nH]2)o1
8: O=C(/C=C/c1ccc(Br)o1)OCc1nc2ccsc2c(=O)[nH]1
9: CCOC(=O)C(CC)Sc1ccc2nnc(CCNS(=O)(=O)c3ccccc3)n2n1 (stereo not drawn)
10: Cc1ccc(NC(=O)C2CCCN(S(=O)(=O)c3cccnc3)C2)c(C)c1 (stereo not drawn)
11: Cc1ccc(NC(=O)C2CCCN(S(=O)(=O)c3cccnc3)C2)cc1C (stereo not drawn)
12: O=C(Nc1cc(F)ccc1F)N1CC(=O)N2[C@H](CO)[C@H](c3ccc(-c4cccnc4)cc3)[C@H]2C1

assay / entry,7,8,9,10,11,12
SIRT5 block,-7,25*,-3,0,18*,1
PDI turbidity,2,11,0,-13,-3,/
S100A4 inh HTS,0,13,-2,0,-6,-7
FGF22 binding,0,/,44*,44*,0,/
UUG fidelity,-6,-9,/,-16,/,/
ERp5 inh,-8,0,1,2,-1,1

13: NS(=O)(=O)c1cccc2c1c([N+](=O)[O-])cc1nc(O)c(O)nc12
14: O=[N+]([O-])c1cc2cccnc2c2ncccc12
15: COc1ccc(-c2csc3nc[nH]c(=O)c23)cc1
16: COc1cc(OC)c(NC2c3ccccc3C(=O)N2c2cc(C)ccn2)cc1Cl (stereo not drawn)
17: CCOC(=O)c1ccccc1NC1c2ccccc2C(=O)N1c1cc(C)ccn1 (stereo not drawn)
18: CO[C@H]1CN(C)C(=O)c2ccc(NC(=O)Cc3ccccc3)cc2OC[C@H](C)NC[C@@H]1C

assay / entry,13,14,15,16,17,18
SIRT5 block,16*,-1,23*,-2,-13,-4
PDI turbidity,0,0,9,/,/,/
S100A4 inh HTS,5,1,18,-3,-2,2
FGF22 binding,0,0,0,3.4*,0,/
UUG fidelity,-8,-24,/,11,2,/
ERp5 inh,-3,/,0,-1,0,-9

# Next part:
# Abbreviations: A = SIRT5 block; B = PDI turbidity; C = S100A4 inh HTS; D = FGF22 binding; E = UUG fidelity; F = ERp5 inh
(19) COc1cccc(CNC(=O)C2CCN(S(=O)(=O)c3ccc(-n4cnnn4)cc3)CC2)c1
  A: /; B: -11; C: -7; D: 43*; E: -9; F: 2

(20) COc1ccccc1CNC(=O)C1CCN(S(=O)(=O)c2ccc(-n3cnnn3)cc2)CC1
  A: 2; B: -14; C: 2; D: 0; E: -14; F: 5

(21) C[C@@H]1CCCCO[C@@H](CN(C)C(=O)Nc2ccc(F)cc2)[C@H](C)CN([C@H](C)CO)C(=O)c2cc(NS(=O)(=O)c3cn(C)cn3)ccc2O1
  A: 2; B: /; C: 4; D: 0; E: 11; F: -5

(22) Clc1ccc2nc3c4ccccc4cnn3c2c1
  A: 0; B: -10; C: 2; D: 43*; E: /; F: 4

(23) COn1c(-c2ccccc2)nc2ccc(Cl)cc21
  A: /; B: -5; C: /; D: /; E: -16; F: /

(24) COc1ccc(CNCC(O)(c2ccccc2)c2ccccc2)cc1OC
  A: 2; B: -6; C: -1; D: 43*; E: /; F: -3

(25) CC(C)C[C@H](NC(=O)C1CCN(C(=O)[C@H](Cc2ccccc2)NC(=O)OC(C)(C)C)CC1)C(=O)O
  A: 22*; B: 3; C: -2; D: 0; E: 6; F: 1
